Results reported in ChEMBL document CHEMBL4265875, “A comprehensive review on Aurora kinase: Small molecule inhibitors and clinical trial studies” (Eur J Med Chem, 2017).

Legend:
[1] = organism: Homo sapiens; assay: Selectivity for Aurora A kinase (unknown origin) over Aurora B kinase (unknown origin)
[2] = organism: Homo sapiens; assay: Selectivity for Aurora A kinase (unknown origin) over Aurora C kinase (unknown origin)

## CCN1CCN(C(=O)Cc2ccc(Nc3ncc(F)c(Nc4ccc(C(=O)Nc5ccccc5Cl)cc4)n3)cc2)CC1
[1]
  Selectivity ratio: 1000
[2]
  Selectivity ratio: 1000
